# T1: nanopore protein CsgG-Eco-(Y51A/F56Q/R97W/R192D-StrepII (C)), P0AEA2
# T1 chain: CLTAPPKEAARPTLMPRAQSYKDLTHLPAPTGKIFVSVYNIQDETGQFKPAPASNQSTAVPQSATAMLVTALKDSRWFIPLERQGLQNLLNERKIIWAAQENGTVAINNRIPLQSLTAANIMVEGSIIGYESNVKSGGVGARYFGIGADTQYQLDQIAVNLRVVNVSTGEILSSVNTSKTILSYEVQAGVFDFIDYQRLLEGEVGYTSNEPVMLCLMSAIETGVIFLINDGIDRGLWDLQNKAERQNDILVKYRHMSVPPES
# B1: BCH105-3 (protein)
# chain: MKHDLSSATEEQRYIFTDFIKQAQLALKGDSDYEVFAIQGFAGSGKTWLSALIIDELLELGMKVAVTSPTHKAVRVSLNMLKNNGIDTNSPLMYPGTIHHFLNLKLDHGFADDGTADNCTTKAKLVVNKFNEALEYVDVLIVDEASMVSGELYDHALKTLGDRAKIILFIGDSYQLLPVDDEDSSIFLKDDIFHYKLTKVVRQAEDNIIIAKSQELIKAMDQKTYYPSVNDYFVNITEDTEGIKLLKSNVELFELYFSDFKDKMTGAYTNKVVNQFNEYIRYTLYQETKFIADKDELVFQETYTDSKGNIIVSNGEIIEVATAKLTTDIDKFKIWKIVSKKNELGEAVRFNVLDPSSYNEFNDLLDKYCADAKIAKGYDRSKAWKKYFKLKEKYAKVRYNFSSTIHKLQGSTYQNMYFDMRGLDYFYRMNRDNVLRLVYVGITRASDQVFILQD
# Target: T1, nanopore protein …
protein,measurement,value
B1,Speed (nt/s),245 nt/s

# From patent US20260201352
